Values of other authors in US20200129630A1, “METHODS FOR TREATING CANCER” (BicycleRD Limited, priority 2018, published 2020).

Legend:
[1] = cited from earlier work
[2] = 120 and 360 mg/m^2 (2 and 6 mg/m^2 DM1 content); cited from earlier work

T-DM1
AE anemia ([1]; GATSBY): 21-33%
AE fatigue ([1]; GATSBY): 33%
AE neutropenia ([1]; GATSBY): 10%
AE peripheral neuropathy ([1]; GATSBY): 10%
AE thrombocytopenia ([1]; GATSBY): 26%
AE transaminitis ([1]; GATSBY): 16%
GI AEs ([1]; GATSBY, constipation, vomiting, diarrhea, nausea, abdominal pain): 25%
patients experiencing peripheral neuropathy ([1]; human, in vivo): 20%
t1/2 ([1]; human, in vivo): ~96 h
axonal degeneration [2]: moderate to severe axonal degeneration
